Measurements published in patent EP4512396A1, “TARGETED COVALENT INHIBITORS FOR CARBONIC ANHYDRASES” (Vilnius University, priority 2023, dated 2025).

Sequences of proteins named here, by UniProt entry; tags and fusion partners are left off. A change or cut given only in a name is not applied to a line headed by its entry.
UniProt P00915: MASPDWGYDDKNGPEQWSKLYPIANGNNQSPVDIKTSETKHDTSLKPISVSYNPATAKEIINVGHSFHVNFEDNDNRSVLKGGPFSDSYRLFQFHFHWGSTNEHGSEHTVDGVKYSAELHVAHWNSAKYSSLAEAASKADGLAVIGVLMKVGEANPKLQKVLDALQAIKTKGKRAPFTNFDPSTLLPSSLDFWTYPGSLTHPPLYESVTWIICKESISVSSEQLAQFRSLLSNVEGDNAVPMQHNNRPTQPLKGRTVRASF

Experiments:
CAI = CAI (Homo sapiens, UniProt P00915); assay: fluorescent thermal shift assay (FTSA); assay type: binding; conditions: FTSA at 37 °C and pH 7.0, read-out: Kd_app
CAIX = CAIX (Homo sapiens, UniProt Q16790); assay: fluorescent thermal shift assay (FTSA); assay type: binding; conditions: FTSA at 37 °C and pH 7.0, read-out: Kd_app

## CC(=O)OCCSc1c(F)c(F)c(S(N)(=O)=O)c(F)c1F [AV19-36, 2-((2,3,5,6-tetrafluoro-4-sulfamoylphenyl)thio)ethyl acetate]
CAI
  Kd: 0.2 nM
CAIX
  Kd: 20 nM
